Reference: ChEMBL document CHEMBL4052642, “4-Methyl-6,7-dihydro-4H-triazolo[4,5-c]pyridine-Based P2X7 Receptor Antagonists: Optimization of Pharmacokinetic Properties Leading to the Identification of a Clinical Candidate” (J Med Chem, 2017)

The chains behind the UniProt entries cited, without tags or fusion partners. Where a name states a change or a piece, a line headed by the entry shows the natural chain unless it says otherwise.
UniProt Q99572: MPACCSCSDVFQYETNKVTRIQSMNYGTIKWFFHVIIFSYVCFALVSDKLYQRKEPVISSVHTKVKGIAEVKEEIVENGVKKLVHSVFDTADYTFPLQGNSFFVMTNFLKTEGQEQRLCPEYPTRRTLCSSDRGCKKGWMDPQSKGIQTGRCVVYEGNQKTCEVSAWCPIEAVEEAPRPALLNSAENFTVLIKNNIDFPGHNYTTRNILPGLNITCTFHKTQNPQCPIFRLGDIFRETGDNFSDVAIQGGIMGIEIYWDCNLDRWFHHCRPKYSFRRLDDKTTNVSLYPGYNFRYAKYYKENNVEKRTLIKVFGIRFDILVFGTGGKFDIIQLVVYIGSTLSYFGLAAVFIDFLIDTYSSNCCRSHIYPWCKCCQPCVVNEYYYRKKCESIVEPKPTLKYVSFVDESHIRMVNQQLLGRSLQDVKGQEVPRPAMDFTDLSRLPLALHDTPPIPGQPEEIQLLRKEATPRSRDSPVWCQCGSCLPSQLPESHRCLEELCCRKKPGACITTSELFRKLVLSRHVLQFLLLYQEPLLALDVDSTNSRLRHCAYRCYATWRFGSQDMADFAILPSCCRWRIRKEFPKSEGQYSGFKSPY

Assays:
[1] = target: P2X purinoceptor 7 (Homo sapiens, UniProt Q99572); test: Antagonist activity at recombinant human P2X7 expressed in human 1321N1 cells assessed as inhibition of BzATP-induced calcium flux preincubated for 30 mins followed by BzATP addition measured over 180 secs by FLIPR assay; assay type: cell-based
[2] = target: T1, P2X purinoceptor 7 (Rattus norvegicus, UniProt Q64663); test: Antagonist activity at recombinant rat P2X7 expressed in human 1321N1 cells assessed as inhibition of BzATP-induced calcium flux preincubated for 30 mins followed by BzATP addition measured over 180 secs by FLIPR assay; assay type: cell-based
T1 sequence (Q64663 whole entry): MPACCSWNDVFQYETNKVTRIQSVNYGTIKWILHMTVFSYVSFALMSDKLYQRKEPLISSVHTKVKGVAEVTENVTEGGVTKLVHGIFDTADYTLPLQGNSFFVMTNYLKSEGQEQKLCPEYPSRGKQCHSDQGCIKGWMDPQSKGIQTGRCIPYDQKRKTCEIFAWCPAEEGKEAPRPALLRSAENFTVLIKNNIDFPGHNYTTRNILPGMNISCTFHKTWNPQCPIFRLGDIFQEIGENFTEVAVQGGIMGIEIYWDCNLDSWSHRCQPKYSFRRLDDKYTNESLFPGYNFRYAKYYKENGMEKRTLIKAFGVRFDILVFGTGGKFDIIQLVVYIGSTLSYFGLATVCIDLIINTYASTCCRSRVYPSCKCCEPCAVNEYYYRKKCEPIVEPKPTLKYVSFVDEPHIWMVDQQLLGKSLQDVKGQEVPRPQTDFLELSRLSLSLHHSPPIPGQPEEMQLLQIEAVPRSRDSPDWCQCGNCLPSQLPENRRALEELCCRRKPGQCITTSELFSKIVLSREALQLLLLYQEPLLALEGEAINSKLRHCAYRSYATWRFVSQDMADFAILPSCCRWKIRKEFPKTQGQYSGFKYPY

| SMILES | Ki [1] | IC50 [2] | IC50 [1] |
| --- | --- | --- | --- |
| C[C@@H]1c2nnn(-c3ncccn3)c2CCN1C(=O)c1cccc(C(F)(F)F)c1Cl | 12.9 nM |  |  |
| C[C@@H]1c2nnn(-c3cc(F)ccn3)c2CCN1C(=O)c1cccc(C(F)(F)F)c1Cl |  | 12.3 nM | 8.32 nM |
| C[C@@H]1c2nnn(-c3cnccn3)c2CCN1C(=O)c1cccc(C(F)(F)F)c1Cl |  | 9.12 nM | 3.47 nM |
